Literature values as cited in US5888494A, “Film-forming compositions of antihyperalgesic opiates and method of treating hyperalgesic and pruritic conditions therewith” (priority 1997, dated 1999).

Conditions: intravenous administration; cited from earlier work

## CN1CC[C@]23c4c5ccc(O)c4O[C@H]2C(=O)CC[C@H]3[C@H]1C5 [hydromorphone]
  itch and itch-related reactions: associated with prutitus, urticaria, other skin rashes, and wheal and flare over the vein being injected
